Values of other authors as cited in Sander's compilation of Henry's law constants (doi:10.1016/j.chemosphere.2007.04.088).

Experiment: Henry solubility constant Hcp at 298.15 K (mol/(m3 Pa))
Details: reference: Warneck (2007); cited value

Henry solubility constant Hcp: 0.0011
SMILES: CCl [chloromethane]
